According to PubChem BioAssay AID2176 (The Scripps Research Institute Molecular Screening Center, 2009):
The entries are a selection whose mix differs from that of the whole data set. The source made the active and inactive calls.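 The calls were made as follows: active = inhibition above the primary screen's cutoff, its mean inhibition plus 3 SD (cut at about 35% in these data); inactive = the rest.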

Protein sequences, listed by entry. Tags and fused reporters are not part of them.
UniProt P78417, whole entry: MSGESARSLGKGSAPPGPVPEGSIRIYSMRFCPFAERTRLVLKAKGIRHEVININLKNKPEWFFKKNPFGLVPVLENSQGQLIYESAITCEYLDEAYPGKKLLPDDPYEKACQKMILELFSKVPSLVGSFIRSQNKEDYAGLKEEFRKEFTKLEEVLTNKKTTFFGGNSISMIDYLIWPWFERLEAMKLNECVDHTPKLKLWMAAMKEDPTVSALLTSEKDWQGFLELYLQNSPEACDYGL

What follows are compounds tested against Glutathione S-transferase omega-1 (Homo sapiens) (UniProt P78417) (assay: GSTO1 inhibitor hit confirmation, counter-screen for RBBP9 inhibitor project, biochemical, fluorescence polarization, triplicate (AID 2176;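 also: loss of polarization as inhibitors block binding of rhodamine sulfonate ester activity probe; 0% = GSTO1 with DMSO and 100% = wells lacking GSTO1 enzyme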)). Details: recombinant GSTO1, probe fluorescence polarization; at 5.96 µM; stronger effect = higher value.
For `CC1=C2N=C(C=C3N=C(C(C)=C4[N-][C@@](C)([C@@H]5N=C1[C@](C)(CCC(=O)NC[C@@H](C)OP(=O)([O-])O[C@H]1[C@@H](O)[C@@H](n6cnc7cc(C)c(C)cc76)O[C@@H]1CO)[C@H]5CC(N)=O)[C@@](C)(CC(N)=O)[C@@H]4CCC(N)=O)[C@@](C)(CC(N)=O)[C@@H]3CCC(N)=O)C(C)(C)[C@@H]2CCC(N)=O.[C-]#N.[Co+3]`, the inhibition was active: 72.5%.
For `O=[N+]([O-])c1cc([N+](=O)[O-])c(Nc2cccnc2)c([N+](=O)[O-])c1`, the inhibition was inactive: 12%.
